From patent US9645138B2, “Method to evaluate the tissue targeting of a molecule of interest” (IMABIOTECH, priority 2013, dated 2017)

Test: MALDI mass spectrometry imaging of mouse kidney sections after oral co-administration (Example 1)
Conditions: mouse kidney target tissue T1; positive control 100% and negative control 0% by definition

SMILES: Cc1cc2c(s1)Nc1ccccc1N=C2N1CCN(C)CC1 [Olanzapine]
- F2 (%): 27%
